This note sets out measurements from ChEMBL document CHEMBL1136541, “D-Phe-Pro-Arg type thrombin inhibitors: unexpected selectivity by modification of the P1 moiety” (Bioorg Med Chem Lett, 2003).

For this assay, the target named is Prothrombin (Homo sapiens, UniProt P00734). As to the kind of experiment: In vitro inhibitory activity against thrombin.

The term IC50 denotes the concentration that gives 50% inhibition.

The molecule `Cn1c(CNC(=O)[C@@H]2C=CCN2C(=O)[C@@H](CC2CCCCC2)NCC(=O)O)ccc1C(=N)N` returned a half-maximal inhibitory concentration (IC50) of 6.2 nM. In the case of `Cn1cc(CNC(=O)[C@@H]2C=CCN2C(=O)[C@@H](CC2CCCCC2)NCC(=O)O)cc1C(=N)N`, half-maximal inhibition (IC50) required 11 nM.
